Source: patent US6258840A, “Analogues or derivatives of quercetin (prodrugs)” (Cobra Therapeutics Limited, priority 1996, dated 2001)

Conditions: water

## 3'/4'-((N-Carboxymethyl)carbamoyloxy)-3,4'(3'),5,7-tetrahydroxy-flavone, N-Methyl-D-glucamine salt
  Aqueous solubility: > 10000 µg/mL
